This experiment has as its target T1, Prolyl endopeptidase (Rattus norvegicus, UniProt O70196).
T1 sequence (O70196 whole entry): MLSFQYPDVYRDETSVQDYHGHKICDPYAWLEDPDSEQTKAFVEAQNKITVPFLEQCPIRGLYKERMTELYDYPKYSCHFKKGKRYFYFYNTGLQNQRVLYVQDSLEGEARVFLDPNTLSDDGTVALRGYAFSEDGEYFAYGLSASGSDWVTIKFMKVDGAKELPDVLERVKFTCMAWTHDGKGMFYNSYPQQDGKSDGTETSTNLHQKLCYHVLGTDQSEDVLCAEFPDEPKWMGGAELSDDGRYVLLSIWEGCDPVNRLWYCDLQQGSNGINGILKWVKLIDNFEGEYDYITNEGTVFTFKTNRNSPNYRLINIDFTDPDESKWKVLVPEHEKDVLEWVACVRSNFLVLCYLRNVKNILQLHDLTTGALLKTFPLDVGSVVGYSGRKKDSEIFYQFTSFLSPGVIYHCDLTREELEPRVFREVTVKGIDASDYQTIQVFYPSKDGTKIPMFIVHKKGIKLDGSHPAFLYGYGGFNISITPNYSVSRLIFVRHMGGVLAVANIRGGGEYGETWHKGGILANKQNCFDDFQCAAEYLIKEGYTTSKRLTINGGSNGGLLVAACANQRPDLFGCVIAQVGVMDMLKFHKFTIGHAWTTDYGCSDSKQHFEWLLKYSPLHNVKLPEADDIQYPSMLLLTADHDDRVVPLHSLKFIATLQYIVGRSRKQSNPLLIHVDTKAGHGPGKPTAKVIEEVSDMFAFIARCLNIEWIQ
Put plainly: Inhibition of POP in Sprague-Dawley rat brain homogenates. In kind it is tissue-based.

In general, IC50 refers to the concentration needed to halve the response being measured.

Turning to `O=C([C@@H]1CCCN1C(=O)CCCN1C(=O)NC(c2ccccc2)(c2ccccc2)C1=O)N1CCCC1`, the IC50 is 41 nM.

For the origin of these results see ChEMBL document CHEMBL1140217, “Prolyl oligopeptidase inhibition by N-acyl-pro-pyrrolidine-type molecules” (J Med Chem, 2008).
